This note sets out measurements from ChEMBL document CHEMBL6087471, “A Collection of Novel Antitumor Agents That Regulate Lipid Metabolism in the Tumor Microenvironment” (J Med Chem, 2025).

Each structure is given as a SMILES string.

The assay addresses Autotaxin (Homo sapiens, UniProt Q13822).

The term IC50 denotes the concentration that inhibits the measured activity by half. Low values mean greater potency in that assay, high ones weaker potency in that assay. Take `CCCCCCCC/C=C\CCCCCCCC(=O)OCC(O)COP(=O)(O)O` (stereo unspecified): the IC50 was determined as 20 nM. In other words, the double-digit nanomolar range.
